The record followed here is patent publication US8999940B2, “Analogues of glucose-dependent insulinotropic polypeptide (GIP) modified at N-terminal” (Ipsen Pharma S.A.S., priority 2008, dated 2015).

In data set [1] the target is T1, human recombinant GIP receptor (Homo sapiens, UniProt P48546).
T1 construct: expressed in transfected cells; host or cells: CHO-K1 clonal cells (membrane preparation)
T1 sequence (P48546 22-466): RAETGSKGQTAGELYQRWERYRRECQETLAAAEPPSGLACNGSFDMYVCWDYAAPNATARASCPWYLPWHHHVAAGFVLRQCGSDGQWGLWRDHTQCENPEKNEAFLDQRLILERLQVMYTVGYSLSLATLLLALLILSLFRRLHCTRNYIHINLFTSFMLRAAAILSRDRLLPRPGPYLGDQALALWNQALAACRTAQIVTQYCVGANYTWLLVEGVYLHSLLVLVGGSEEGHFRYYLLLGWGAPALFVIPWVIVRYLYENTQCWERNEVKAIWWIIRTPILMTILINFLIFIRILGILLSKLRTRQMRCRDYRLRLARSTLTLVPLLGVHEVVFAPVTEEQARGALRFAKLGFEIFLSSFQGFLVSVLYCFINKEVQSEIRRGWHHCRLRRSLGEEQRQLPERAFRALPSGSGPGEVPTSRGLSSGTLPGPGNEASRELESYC
The data set is described as follows: In vitro hGIP receptor binding assay. The protocol: A. In Vitro hGIP Receptor Binding Assay […] The incubations were terminated by rapid filtration through GF/C filters (pre-soaked in 0.5% polyethylenimine) using a Brandel filtration manifold. Each tube and filter were then washed three times with 5-ml aliquots of ice-cold buffer. Specific binding was defined as the total radioligand bound minus that bound in the presence of 1000 nM GIP.

A short description of data set [2]: Human plasma half-life assay. Format: in vitro ADME. Particulars: 37° C., LC-MS; for half-life at 0.1 mg/ml: read-out: Human Plasma T½ (converted). The protocol:
(§1) B. Human and Rat Plasma Half-Life Assay
(§2) GIP peptide (50 μl 1 mg/ml) was added to 450 μl plasma (human or rat), vertexed briefly and incubated at 37° C. 50 μl was removed at various times, like at 0, 1, 2, 3, 4, 8, 24, 32, 48, 56, 72 hours, mixed with 5 μl formic acid and 150 μL acetonitrile in a microcentrifuge tube, vertexed, and centrifuged for 10 minutes at 10 K rpm. The supernatant was transferred to an injection vial and analyzed by LC-MS. The LC-MS system consisted of an API4000 mass spectrometer with an ESI probe. Positive ion mode and full scan detection were used. HPLC separation was carried out on a Luna 3μ. C8 (2), 2×30 mm column with a gradient from 90% A to 90% B in 10 minutes at a flow rate of 0.3 ml/min. Buffer A was 1% formic acid in water and buffer B was 1% formic acid acetonitrile.

Data set [3] can be described thus: Rat plasma half-life assay. Format: in vitro ADME. The conditions noted are these: 37° C., LC-MS; for half-life at 0.1 mg/ml: read-out: Rat Plasma T½ (converted). The protocol:
as §1, §2

The structures appear in SMILES notation.

For `CCCC[C@H](NC(=O)C(C)(C)NC(=O)[C@@H](NC(=O)[C@H](CO)NC(=O)[C@H](Cc1ccc(O)cc1)NC(=O)[C@H](CC(=O)O)NC(=O)[C@H](CO)NC(=O)[C@@H](NC(=O)[C@H](Cc1ccccc1)NC(=O)[C@@H](NC(=O)CNC(=O)[C@H](CCC(=O)O)NC(=O)C(C)(C)NC(=O)[C@@H](N)Cc1cc(Br)c(O)c(Br)c1)[C@@H](C)O)[C@@H](C)CC)[C@@H](C)CC)C(=O)N[C@@H](CC(=O)O)C(=O)N[C@@H](CCCCN)C(=O)N[C@H](C(=O)N[C@@H](Cc1c[nH]cn1)C(=O)N[C@@H](CCC(N)=O)C(=O)N[C@@H](CCC(N)=O)C(=O)N[C@@H](CC(=O)O)C(=O)N[C@@H](Cc1ccccc1)C(=O)N[C@H](C(=O)N[C@@H](CC(N)=O)C(=O)N[C@@H](Cc1c[nH]c2ccccc12)C(=O)N[C@@H](CC(C)C)C(=O)N[C@@H](CC(C)C)C(=O)N[C@@H](C)C(=O)N[C@@H](CCC(N)=O)C(=O)N[C@@H](CCCCN)C(=O)NCC(=O)N[C@@H](CCCCN)C(=O)N[C@@H](CCCCN)C(=O)N[C@@H](CC(N)=O)C(=O)N[C@@H](CC(=O)O)C(=O)N[C@@H](Cc1c[nH]c2ccccc12)C(=O)N[C@@H](CCCCN)C(=O)N[C@@H](Cc1c[nH]cn1)C(=O)N[C@@H](CC(N)=O)C(=O)N[C@H](C(=O)N[C@H](C(=O)N[C@@H](CCC(N)=O)C(=O)O)[C@@H](C)O)[C@@H](C)CC)C(C)C)[C@@H](C)CC` [Example 11, (3,5Br-Tyr^1, Aib^2, 13, Nle^14)hGIP(1-42)-OH], in data set [1], the Ki was 4.26 nM. For the same compound, the values for the half-life at 0.1 mg/ml in data set [2] and in data set [3] were 30 h and 11.8 h, respectively.

Turning to `CC[C@H](C)[C@H](NC(=O)[C@H](CCCCN)NC(=O)[C@H](CC(=O)O)NC(=O)[C@H](CCSC)NC(=O)[C@H](C)NC(=O)[C@@H](NC(=O)C1(NC(=O)[C@H](Cc2ccc(O)cc2)NC(=O)[C@H](CC(=O)O)NC(=O)[C@H](CO)NC(=O)[C@@H](NC(=O)[C@H](Cc2ccccc2)NC(=O)[C@@H](NC(=O)CNC(=O)[C@H](CCC(=O)O)NC(=O)CNC(=O)[C@@H](N)Cc2ccc(O)c(F)c2)[C@@H](C)O)[C@@H](C)CC)CCCC1)[C@@H](C)CC)C(=O)N[C@@H](Cc1c[nH]cn1)C(=O)N[C@@H](CCC(N)=O)C(=O)N[C@@H](CCC(N)=O)C(=O)N[C@@H](CC(=O)O)C(=O)N[C@@H](Cc1ccccc1)C(=O)N[C@H](C(=O)N[C@@H](CC(N)=O)C(=O)N[C@@H](Cc1c[nH]c2ccccc12)C(=O)N[C@@H](CC(C)C)C(=O)N[C@@H](CC(C)C)C(=O)N[C@@H](C)C(=O)N[C@@H](CCC(N)=O)C(=O)N[C@@H](CCCCN)C(=O)NCC(=O)N[C@@H](CCCCN)C(=O)N[C@@H](CCCCN)C(=O)N[C@@H](CC(N)=O)C(=O)N[C@@H](CC(=O)O)C(=O)N[C@@H](Cc1c[nH]c2ccccc12)C(=O)N[C@@H](CCCCN)C(=O)N[C@@H](Cc1c[nH]cn1)C(=O)N[C@@H](CC(N)=O)C(=O)NC1(C(=O)N[C@H](C(=O)N[C@@H](CCC(N)=O)C(=O)O)[C@@H](C)O)CCCC1)C(C)C` [Example 39, (3F-Tyr^1, Gly^2, A5c^11, 41)hGIP(1-42)-OH], the half-life in data set [2] (read-out: Human Plasma T½) and in data set [3] (read-out: Rat Plasma T½) was over 72 h in each case.

For the compound `CC[C@H](C)[C@H](NC(=O)[C@H](CCCCN)NC(=O)[C@H](CC(=O)O)NC(=O)[C@H](CCSC)NC(=O)[C@H](C)NC(=O)[C@@H](NC(=O)C1(NC(=O)[C@H](Cc2ccc(O)cc2)NC(=O)[C@H](CC(=O)O)NC(=O)[C@H](CO)NC(=O)[C@@H](NC(=O)[C@H](Cc2ccccc2)NC(=O)[C@@H](NC(=O)CNC(=O)[C@H](CCC(=O)O)NC(=O)CNC[C@@H](N)Cc2ccc(O)cc2)[C@@H](C)O)[C@@H](C)CC)CCCC1)[C@@H](C)CC)C(=O)N[C@@H](Cc1c[nH]cn1)C(=O)N[C@@H](CCC(N)=O)C(=O)N[C@@H](CCC(N)=O)C(=O)N[C@@H](CC(=O)O)C(=O)N[C@@H](Cc1ccccc1)C(=O)N[C@H](C(=O)N[C@@H](CC(N)=O)C(=O)N[C@@H](Cc1c[nH]c2ccccc12)C(=O)N[C@@H](CC(C)C)C(=O)N[C@@H](CC(C)C)C(=O)N[C@@H](C)C(=O)N[C@@H](CCC(N)=O)C(=O)N[C@@H](CCCCN)C(=O)NCC(=O)N[C@@H](CCCCN)C(=O)N[C@@H](CCCCN)C(=O)N[C@@H](CC(N)=O)C(=O)N[C@@H](CC(=O)O)C(=O)N[C@@H](Cc1c[nH]c2ccccc12)C(=O)N[C@@H](CCCCN)C(=O)N[C@@H](Cc1c[nH]cn1)C(=O)N[C@@H](CC(N)=O)C(=O)N[C@H](C(=O)NC1(C(=O)N[C@@H](CCC(N)=O)C(=O)O)CCCC1)[C@@H](C)CC)C(C)C` [Example 40, [Tyr^1-Ψ-(CH2—NH)Gly^2, A5c^11, 41]hGIP(1-42)-OH], the Ki in data set [1] was determined as 49 nM. Besides, the figures for the half-life at 0.1 mg/ml in data set [2] and in data set [3] were over 48 h and 11.9 h, respectively.

Regarding `CC[C@H](C)[C@H](NC(=O)[C@H](CCCCN)NC(=O)[C@H](CC(=O)O)NC(=O)C1(NC(=O)[C@H](C)NC(=O)[C@@H](NC(=O)C2(NC(=O)[C@H](Cc3ccc(O)cc3)NC(=O)[C@H](CC(=O)O)NC(=O)[C@H](CO)NC(=O)[C@@H](NC(=O)[C@H](Cc3ccccc3)NC(=O)[C@@H](NC(=O)CNC(=O)[C@H](CCC(=O)O)NC(=O)C(C)(C)NC(=O)[C@@H](N)Cc3ccc(O)c(Cl)c3)[C@@H](C)O)[C@@H](C)CC)CCCC2)[C@@H](C)CC)CCCC1)C(=O)N[C@@H](Cc1c[nH]cn1)C(=O)N[C@@H](CCC(N)=O)C(=O)N[C@@H](CCC(N)=O)C(=O)N[C@@H](CC(=O)O)C(=O)N[C@@H](Cc1ccccc1)C(=O)N[C@H](C(=O)N[C@@H](CC(N)=O)C(=O)N[C@@H](Cc1c[nH]c2ccccc12)C(=O)N[C@@H](CC(C)C)C(=O)N[C@@H](CC(C)C)C(=O)N[C@@H](C)C(=O)N[C@@H](CCC(N)=O)C(=O)N[C@@H](CCCCN)C(=O)NCC(=O)N[C@@H](CCCCN)C(=O)N[C@@H](CCCCN)C(=O)N[C@@H](CC(N)=O)C(=O)N[C@@H](CC(=O)O)C(=O)N[C@@H](Cc1c[nH]c2ccccc12)C(=O)N[C@@H](CCCCN)C(=O)N[C@@H](Cc1c[nH]cn1)C(=O)N[C@@H](CC(N)=O)C(=O)N[C@H](C(=O)N[C@H](C(=O)N[C@@H](CCC(N)=O)C(=O)N[C@@H](Cc1c[nH]cn1)C(=O)O)[C@@H](C)O)[C@@H](C)CC)C(C)C` [Example 63, (3Cl-Tyr^1, Aib^2, A5c^11, 14, His^43)hGIP(1-43)-OH], in data set [1], the Ki was 0.78 nM. Further, the values for the half-life at 0.1 mg/ml in data set [2] and in data set [3] were 43 h and 34.7 h, respectively.

Take `CCCC[C@H](NC(=O)[C@H](C)NC(=O)[C@@H](NC(=O)C1(NC(=O)[C@H](Cc2ccc(O)cc2)NC(=O)[C@H](CC(=O)O)NC(=O)[C@H](CO)NC(=O)[C@@H](NC(=O)[C@H](Cc2ccccc2)NC(=O)[C@@H](NC(=O)CNC(=O)[C@H](CCC(=O)O)NC(=O)C(C)(C)NC(=O)[C@@H](N)Cc2ccc(O)c(Cl)c2)[C@@H](C)O)[C@@H](C)CC)CCCC1)[C@@H](C)CC)C(=O)N[C@@H](CC(=O)O)C(=O)N[C@@H](CCCCN)C(=O)N[C@H](C(=O)N[C@@H](Cc1c[nH]cn1)C(=O)N[C@@H](CCC(N)=O)C(=O)N[C@@H](CCC(N)=O)C(=O)N[C@@H](CC(=O)O)C(=O)N[C@@H](Cc1ccccc1)C(=O)N[C@H](C(=O)N[C@@H](CC(N)=O)C(=O)N[C@@H](Cc1c[nH]c2ccccc12)C(=O)N[C@@H](CC(C)C)C(=O)N[C@@H](CC(C)C)C(=O)N[C@@H](C)C(=O)N[C@@H](CCC(N)=O)C(=O)N[C@@H](CCCCN)C(=O)NCC(=O)N[C@@H](CCCCN)C(=O)N[C@@H](CCCCN)C(=O)N[C@@H](CC(N)=O)C(=O)N[C@@H](CC(=O)O)C(=O)N[C@@H](Cc1c[nH]c2ccccc12)C(=O)N[C@@H](CCCCN)C(=O)N[C@@H](Cc1c[nH]cn1)C(=O)N[C@@H](CC(N)=O)C(=O)N[C@H](C(=O)N[C@H](C(=O)N[C@@H](CCC(N)=O)C(=O)N[C@@H](Cc1c[nH]cn1)C(=O)O)[C@@H](C)O)[C@@H](C)CC)C(C)C)[C@@H](C)CC` [Example 64, (3Cl-Tyr^1, Aib^2, A5c^11, Nle^14, His^43)hGIP(1-43)-OH]: in data set [1], the Ki is 0.76 nM.

In general, Ki refers to a dissociation constant, usually derived from enzyme kinetics or from competition with a known ligand.
